Screens: PubChem BioAssay, National Center for Advancing Translational Sciences (NCATS)
Hits are enriched below; roughly 0.59% of the tested compounds scored in any of these assays.
Rango complex inh: qHTS Assay for Inhibitors of Rango (Ran-regulated importin-beta cargo) - Importin beta complex formation; Importin subunit beta-1 (Homo sapiens), Q14974; Rango CFP/YFP FRET sensor + importin beta, 45 min; Potency, µM (top dose mostly 92.2 µM); hit rate 0.031% among 340,000; AID 540263, 2011; calls by dose curve; also: nearly all actives have a fitted effect of over 15% in size
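FRET biosensor Rango (snurportin 1 IBB between N-terminal EYFP and C-terminal Cerulean), 50 nM in PBS/1 mM DTT/0.02% Tween-20/0.1% BSA, preincubated 5 min RT with compound; 0.125 microM importin beta added, 45 min RT, CFP/YFP FRET ratio read.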
IL-2 act: qHTS of IL-2 Activators | IL-2 activation reporter assay, cell-based qHTS; stimulated with anti-CD3/CD4/CD28 beads; in transgenic mouse T cells | activation, % (series mostly up to about 46 µM) | hit rate 0.065% among 360,000; in the data active = activation above about 50%; inconclusive = mostly about 30% to 49%
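Readout is EGFP and DsRed signal by fluorescent plate cytometry after 18 h at 37 degrees C. Transgenic mouse T cells (750/well) received compound for 60 min before bead stimulation (anti-CD3, anti-CD4, anti-CD28); memory T cells served as non-tolerant control.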
A-T KAP1 phos: qHTS Assay for Identifying a Potential Treatment of Ataxia-Telangiectasia; AID 485349, 2010; F2112 A-T fibroblasts, KAP-1 phosphorylation AlphaLISA; neocarzinostatin DNA damage 30 min before lysis; Potency, µM (titrated, usually from 57.5 µM), usual class: activators; hit rate 0.19% among 320,000; also: nearly all actives have a fitted effect of over 45% in size
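hTERT-immortalized A-T patient fibroblasts (F2112), 500 cells/well in OPTI-MEM, 1% FBS, got compounds for 60 min, then NCS for 30 min at 37C. Lysates were then assayed for phospho-KAP-1 by AlphaLISA (anti-pKAP1 donor, anti-KAP1 acceptor beads), 6 hr at 25C.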
Rango release inh: qHTS Assay for Inhibitors of RanGTP induced Rango (Ran-regulated importin-beta cargo) - Importin beta complex dissociation | hit rate 0.071% among 340,000 | Snurportin-1 (Homo sapiens) + GTP-binding nuclear protein Ran (Homo sapiens) + Importin … | Biochemical FRET Rango-importin beta, RanGTP-induced dissociation | Potency, µM (highest dose often 46.1 µM); calls by dose curve; also: nearly all actives have a fitted effect of over 45% in size
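FRET read at 45 min, room temperature: inhibitors block the CFP/YFP signal rise when RanGTP (0.6 uM Ran, 2 mM GTP, 0.2 uM RCC1) frees Rango (0.1 uM) from importin beta (0.25 uM). Pre-read after 5 min compound exposure flags interference.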
PKM2 act: qHTS Assay for Activators of Human Muscle isoform 2 Pyruvate Kinase; Pyruvate kinase PKM (Homo sapiens), P14618; purified PKM2, Kinase-Glo ATP luminescence, activation; response scale: 0% is enzyme alone, no compound; Potency, µM (series often up to 57.5 µM), usual class: activators; hit rate 0.34% among 260,000; also: nearly all actives have a fitted effect of over 55% in size
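ATP formation by purified human PK-M2, quantified via coupled luciferase luminescence after 1 h at room temperature with 0.1 mM ADP and 0.5 mM PEP final.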
Each line names hits and unclear results; the compound was inactive in the other large screens. Unless noted, calls follow the shape of the dose curve; as a rule, active = well fitted activation curve with a large enough effect; inconclusive = small, poorly fitted or top-dose-only effect; inactive = no such curve, though single readings can be large or run the other way.

Sequences of proteins named here, by UniProt entry; tags and fusion partners are left off.
Importin subunit beta-1 (Homo sapiens), Q14974, UniProt Q14974, whole entry, looked up: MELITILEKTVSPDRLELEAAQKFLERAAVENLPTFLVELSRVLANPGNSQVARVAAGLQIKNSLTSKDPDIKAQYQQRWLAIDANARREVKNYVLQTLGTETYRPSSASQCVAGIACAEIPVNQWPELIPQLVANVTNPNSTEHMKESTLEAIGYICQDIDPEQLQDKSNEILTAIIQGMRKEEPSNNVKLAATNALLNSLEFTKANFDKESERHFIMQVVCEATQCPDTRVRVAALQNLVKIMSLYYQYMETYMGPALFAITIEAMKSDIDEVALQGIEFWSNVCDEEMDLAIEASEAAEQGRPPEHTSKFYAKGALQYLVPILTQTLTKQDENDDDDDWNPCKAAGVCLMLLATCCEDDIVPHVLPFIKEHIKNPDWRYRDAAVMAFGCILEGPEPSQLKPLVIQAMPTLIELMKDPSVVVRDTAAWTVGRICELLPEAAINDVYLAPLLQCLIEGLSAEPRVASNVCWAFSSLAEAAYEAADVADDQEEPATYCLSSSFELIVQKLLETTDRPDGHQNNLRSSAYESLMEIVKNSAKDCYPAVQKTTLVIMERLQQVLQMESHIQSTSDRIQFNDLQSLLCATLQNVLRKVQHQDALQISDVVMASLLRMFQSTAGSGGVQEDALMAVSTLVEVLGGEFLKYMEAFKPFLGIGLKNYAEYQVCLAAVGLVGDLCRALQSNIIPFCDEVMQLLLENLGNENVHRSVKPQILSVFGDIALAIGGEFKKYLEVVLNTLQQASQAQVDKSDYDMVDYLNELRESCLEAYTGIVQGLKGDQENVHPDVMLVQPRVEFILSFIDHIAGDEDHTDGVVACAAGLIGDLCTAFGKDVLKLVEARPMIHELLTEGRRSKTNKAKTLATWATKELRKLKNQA
Pyruvate kinase PKM (Homo sapiens), P14618, UniProt P14618, whole entry, looked up: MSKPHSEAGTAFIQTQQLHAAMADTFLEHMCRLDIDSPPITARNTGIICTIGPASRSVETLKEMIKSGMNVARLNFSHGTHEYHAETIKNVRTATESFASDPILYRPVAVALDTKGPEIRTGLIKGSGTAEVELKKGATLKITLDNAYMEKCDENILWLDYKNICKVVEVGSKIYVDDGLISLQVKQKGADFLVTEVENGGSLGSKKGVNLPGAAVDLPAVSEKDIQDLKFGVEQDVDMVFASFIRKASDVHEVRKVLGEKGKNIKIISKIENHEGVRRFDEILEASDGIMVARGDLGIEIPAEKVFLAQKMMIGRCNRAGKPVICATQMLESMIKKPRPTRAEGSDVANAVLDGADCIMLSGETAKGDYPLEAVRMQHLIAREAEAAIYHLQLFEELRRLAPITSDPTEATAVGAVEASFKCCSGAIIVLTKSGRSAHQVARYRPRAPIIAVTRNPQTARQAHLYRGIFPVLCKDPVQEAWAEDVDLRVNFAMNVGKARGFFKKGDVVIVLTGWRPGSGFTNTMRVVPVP

CCCCN1CCCCC1(C)C(=O)NCc1cccs1 (stereo unspecified)	none (no result: Rango complex inh, A-T KAP1 phos, Rango release inh, PKM2 act)
Cc1cc2nc(/C=C/c3nc4cc(C)c(C)cc4[nH]3)[nH]c2cc1C	Rango complex inh inconclusive, A-T KAP1 phos 22µM
CCCCn1c(=O)[nH]c(=O)c2c1nc(-c1ccc3ccccc3c1)n2CC	none
CCCCn1c(=O)[nH]c(=O)c2c1nc(-c1ccc(-c3ccccc3Br)o1)n2CC	PKM2 act 16µM
CCn1c(SCc2cccc(F)c2)nnc1-c1ccncc1	A-T KAP1 phos 4.5µM (no result: PKM2 act)
CCn1c(SCc2cccc(F)c2)nnc1-c1cccnc1	none
CCC(C)NC(=O)C1(N2C(=O)c3ccccc3C2=O)CCCC1 (stereo unspecified)	none (no result: A-T KAP1 phos, PKM2 act)
Oc1ccc(-c2nc3ccccc3s2)c(O)c1	none
Nc1ccc(O)c(-c2nc3ccccc3s2)c1	Rango complex inh inconclusive, Rango release inh 10µM
Cc1ccc(C(=O)Nc2ccc(C(=O)O)cc2)cc1S(=O)(=O)NCc1ccccc1	Rango complex inh inconclusive, IL-2 act 535, Rango release inh inconclusive
CCOc1cc(/C=C2/C(=O)ON=C2C)ccc1OCc1ccccc1F	PKM2 act 16µM
CCOc1cc(/C=C2/C(=O)ON=C2C)ccc1OCc1ccccc1	none
Oc1ccc(-c2csc(Nc3ncccn3)n2)c(O)c1	none
Cc1ccc(C)c(-c2csc(Nc3ncccn3)n2)c1	A-T KAP1 phos 3.2µM (no result: PKM2 act)
CC(C)C[C@H]1CN(CCCC[C@H]2CNC(=O)C(=O)N2CCc2ccccc2)C(=O)C(=O)N1CCc1ccc(O)cc1	none (no result: Rango complex inh, A-T KAP1 phos, Rango release inh, PKM2 act)
Cc1cccc2cc(COC(=O)COc3ccccc3)c(=O)[nH]c12	A-T KAP1 phos 22µM
COCC(=O)OCc1cc2cccc(C)c2[nH]c1=O	none
CCn1c(SCC(=O)N/N=C\c2ccccc2OCC(=O)O)nnc1-c1ccc(Cl)cc1	none
C=C(C)Cn1c(SCC(=O)N/N=C/c2ccccc2OCC(=O)O)nnc1-c1ccc(Br)cc1	A-T KAP1 phos 40µM
COc1nc(-c2ccccc2)ccc1-c1noc(-c2ccccc2)n1	none
COc1ccc(-c2ccc(-c3noc(-c4ccccc4)n3)c(OC)n2)cc1	Rango complex inh inconclusive, Rango release inh 2.1µM
CCOC(=O)c1c(NC(=O)CN(CC)CC)sc2c1CCC2	A-T KAP1 phos 22µM
COc1ccccc1NC(=O)C1=C(C)NC(=O)NC1c1ccccc1[N+](=O)[O-] (stereo unspecified)	PKM2 act 25µM
CCOc1cc(Br)c(/C=C2/C(=O)N(C)C(=S)N2CC(=O)OC)cc1OC	Rango complex inh inconclusive, IL-2 act 100, Rango release inh inconclusive
COc1ccc(CNC(=O)C(C#N)c2nc3ccccc3nc2N2CCCC2)cc1 (stereo unspecified)	Rango complex inh inconclusive, IL-2 act 122, Rango release inh inconclusive
COC(=O)CN(c1ccc(C)cc1)S(=O)(=O)c1ccc2c(c1)n(C)c(=O)c(=O)n2C	PKM2 act 16µM
O=C(N[C@@H](Cc1ccccc1)C(=O)OCc1ccccc1)c1nc[nH]c1C(=O)N1CCNCC1	none (no result: PKM2 act)
COc1ccc(-c2ccccc2)cc1NC(=O)[C@@H]1O[C@H](CO)[C@H](O)[C@H](O)[C@H]1O	none (no result: Rango complex inh, A-T KAP1 phos, Rango release inh, PKM2 act)
COc1cccc(OC)c1C(=O)NCCNc1nc2cc(C)cc(C)c2cc1C#N	none (no result: Rango complex inh, A-T KAP1 phos, Rango release inh, PKM2 act)
COc1ccccc1C(=O)NCCNc1nc2cc(C)cc(C)c2cc1C#N	Rango complex inh inconclusive, Rango release inh 12µM
O=C(NCCc1ccccc1)C1=CCN(S(=O)(=O)c2ccccc2)CC1	none (no result: PKM2 act)
CCN1C(=O)CS/C1=N\S(=O)(=O)c1ccc(Cl)cc1	none
CCn1c(Cl)c(C=O)s/c1=N\S(=O)(=O)c1ccccc1	PKM2 act 16µM
FC(F)(F)c1cccc(-n2cccc2/C=N/n2cnnc2)c1	PKM2 act 20µM
Oc1ccc(-n2cccc2/C=N/n2cnnc2)cc1	none
Cc1cc(N2C(=O)C=CC2=O)c([N+](=O)[O-])cc1C	PKM2 act 5.6µM
CN1C=CC(=O)[C@@H](OC(=O)Nc2ccc(Br)cc2)[C@H]1c1ccccc1Br	none (no result: A-T KAP1 phos, PKM2 act)
CCN(CC)c1ccc(/C=C2\CCC(/C=N/NC(=O)c3ccc(=O)n(C)c3)=C2N2CCOCC2)cc1	Rango complex inh inconclusive, IL-2 act 71, Rango release inh inconclusive
Cc1ccc2[nH]c(=O)c(C(c3nnnn3C(C)(C)C)N3CCN(C(=O)c4ccco4)CC3)cc2c1 (stereo unspecified)	PKM2 act 25µM
Cc1cccc2cc(C(c3nnnn3C(C)(C)C)N3CCN(C(=O)c4ccco4)CC3)c(=O)[nH]c12 (stereo unspecified)	none
CCC(C)(C)n1nnnc1C(c1cc2cc(C)cc(C)c2[nH]c1=O)N1CCN(C(=O)c2ccco2)CC1 (stereo unspecified)	PKM2 act 14µM
COc1cccc(-c2ccc3ncnc(NCc4cccc(F)c4)c3c2)c1	none (no result: Rango complex inh, IL-2 act, Rango release inh, PKM2 act)
CC1C(c2ccccc2)N(C)C(c2ccccc2)CC1(O)c1ccccc1 (stereo unspecified)	A-T KAP1 phos 10µM, Rango release inh inconclusive
Cc1nc2sc(C#N)c(N)c2c2c1CCCC2	Rango release inh inconclusive
CC(=O)c1sc2nc(C)c3c(c2c1N)CCCC3	Rango complex inh inconclusive, A-T KAP1 phos 35µM, Rango release inh inconclusive
O=C1Nc2c(Cl)cc(Cl)cc2C1=O	none (no result: A-T KAP1 phos, PKM2 act)
COc1ccc(NC(=O)CCCC(=O)NCCc2ccc(OC)c(OC)c2)cc1	none
CCN1C(=O)c2cccc3c(S(=O)(=O)Nc4ccncc4)ccc1c23	Rango complex inh inconclusive, Rango release inh inconclusive (no result: A-T KAP1 phos)
CCN1C(=O)c2cccc3c(S(=O)(=O)Nc4ncccc4C)ccc1c23	Rango complex inh inconclusive, Rango release inh inconclusive, PKM2 act 11µM
CCN1C(=O)c2cccc3c(S(=O)(=O)Nc4ccccn4)ccc1c23	Rango complex inh inconclusive, Rango release inh inconclusive, PKM2 act inconclusive
CCN1C(=O)c2cccc3c(S(=O)(=O)Nc4nc(C)cs4)ccc1c23	PKM2 act 4µM
CCCCc1cc2c(cn1)=C(OC(=O)CCC(=O)OC)C(C)(OC(=O)CC)C(=O)C=2 (stereo unspecified)	none (no result: Rango complex inh, IL-2 act, A-T KAP1 phos, Rango release inh)
O=C(N/N=C/c1c(O)ccc2ccccc12)Nc1ccccc1	Rango complex inh 65µM, Rango release inh inconclusive (no result: A-T KAP1 phos, PKM2 act)
NS(=O)(=O)c1cc2c(cc1Cl)NC(CC1CCCC1)NS2(=O)=O (stereo unspecified)	Rango complex inh 58µM
Cc1ccc(NC(=O)c2cc(N3C(=O)C=CC3=O)ccc2Cl)cc1C	PKM2 act 4µM
